Data as given in PMC3583018 (Synapse (New York, N.Y.), 2010).

Sequences of proteins named here, by UniProt entry; tags and fusion partners are left off.
UniProt P14416, whole entry: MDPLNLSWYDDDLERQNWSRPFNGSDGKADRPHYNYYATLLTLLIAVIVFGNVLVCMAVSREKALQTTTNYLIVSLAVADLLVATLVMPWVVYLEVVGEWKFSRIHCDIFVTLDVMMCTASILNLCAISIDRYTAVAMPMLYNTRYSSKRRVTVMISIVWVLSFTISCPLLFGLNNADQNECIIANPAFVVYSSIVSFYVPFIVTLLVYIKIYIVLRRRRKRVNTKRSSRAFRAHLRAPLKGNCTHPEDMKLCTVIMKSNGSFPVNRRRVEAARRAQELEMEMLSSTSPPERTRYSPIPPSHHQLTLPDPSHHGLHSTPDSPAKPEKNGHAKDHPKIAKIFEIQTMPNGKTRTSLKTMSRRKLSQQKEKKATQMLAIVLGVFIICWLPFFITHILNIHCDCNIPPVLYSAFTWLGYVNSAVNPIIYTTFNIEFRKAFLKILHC

Target: human hD2L receptors (Homo sapiens, UniProt P14416)
Assay: Saturation
Conditions: hD2L in HEK cells, saturation binding, mean ± S.E.M n = 3

CCN1CCC[C@H]1CNC(=O)c1c(O)c(Cl)cc(Cl)c1OC (racemic) [[^3H]raclopride, reference compound]
Kd: 1.6 ± 0.1 nM
